The values below come from ChEMBL document CHEMBL3232862, “Optimization of chemical functionalities of indole-2-carboxamides to improve allosteric parameters for the cannabinoid receptor 1 (CB1)” (J Med Chem, 2014).

Amino acid sequences for entries named in this document (tags omitted).
UniProt P21554, whole entry: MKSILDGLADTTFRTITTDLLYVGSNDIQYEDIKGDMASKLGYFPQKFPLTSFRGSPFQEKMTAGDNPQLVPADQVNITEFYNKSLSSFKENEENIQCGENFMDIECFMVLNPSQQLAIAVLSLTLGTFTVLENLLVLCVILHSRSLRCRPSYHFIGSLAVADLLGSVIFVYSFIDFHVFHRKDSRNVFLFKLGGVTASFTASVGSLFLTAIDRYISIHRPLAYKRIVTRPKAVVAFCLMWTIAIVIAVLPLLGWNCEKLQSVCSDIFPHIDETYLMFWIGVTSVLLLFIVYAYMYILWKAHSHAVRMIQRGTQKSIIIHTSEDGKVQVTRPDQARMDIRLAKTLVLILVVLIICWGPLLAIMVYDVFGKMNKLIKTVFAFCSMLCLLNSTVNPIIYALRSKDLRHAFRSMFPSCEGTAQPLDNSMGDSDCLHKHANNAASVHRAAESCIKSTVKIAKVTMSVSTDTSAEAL

For the assay, the target named is Cannabinoid receptor 1 (Homo sapiens) (UniProt P21554). In words: Positive allosteric modulation of cannabinoid CB1 receptor (unknown origin) expressed in HEK293 cells assessed as effect on ERK1/2 phosphorylation at 10 uM by Western blot analysis in absence of siRNA targeting beta-arrestin 1. It counts as cell-based. A general note: In western blotting, separated proteins are transferred to a membrane and probed.

The source made the active and inactive calls. The calls are words filed in the database; no cut-off is given here.

With `CCCCCc1c(C(=O)NCCc2ccc(N3CCCCC3)cc2)[nH]c2ccc(Cl)cc12`, the outcome was Active.
